Target: D(2) dopamine receptor (Homo sapiens) (UniProt P14416)

By UniProt entry, the sequences of proteins in these tests, tags left out.
UniProt P14416, whole entry: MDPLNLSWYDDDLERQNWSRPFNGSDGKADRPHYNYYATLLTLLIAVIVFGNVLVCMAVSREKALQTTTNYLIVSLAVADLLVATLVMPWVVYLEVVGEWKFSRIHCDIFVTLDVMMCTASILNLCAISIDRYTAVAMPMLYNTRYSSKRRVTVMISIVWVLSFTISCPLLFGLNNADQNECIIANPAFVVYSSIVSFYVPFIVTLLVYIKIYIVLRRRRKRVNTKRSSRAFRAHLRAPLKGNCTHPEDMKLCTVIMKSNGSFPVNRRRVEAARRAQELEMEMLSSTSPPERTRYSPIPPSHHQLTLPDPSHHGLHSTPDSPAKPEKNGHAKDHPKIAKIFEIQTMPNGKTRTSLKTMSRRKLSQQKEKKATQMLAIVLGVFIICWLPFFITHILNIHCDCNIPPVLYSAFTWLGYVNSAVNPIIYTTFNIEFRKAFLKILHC

Compound | pKi
CN(CCCC(=O)c1ccc(F)cc1)CCCC(O)c1ccc(Cl)cc1 (configuration not stated) | 7.58
O=C(CCCN1CCC(c2ccc(Cl)cc2)CC1)c1ccc(F)cc1 | 7.81
